{
  "source": "patent US11760766B2",
  "about": "“Ionic liquids containing quaternary ammonium and phosphonium cations, and their use as environmentally friendly lubricant additives” (UT-Battelle, LLC, priority 2020, dated 2023)",
  "settings": "centrifuged 13,000 rpm 5 min",
  "note": "Read-outs that look alike come from different tables or passages of the source.",
  "data": [
    {"substance": "Trioctylammonium di(2-ethylhexyl)phosphate [[N888H][DEHP], reference compound]", "values": [
      {"measurement": "IL's solubility in base oil", "setting": "OSP-32", "result": ">5", "unit": "% wt. %"},
      {"measurement": "IL's solubility in base oil", "setting": "PAG (50-HB-170)", "result": ">5", "unit": "% wt. %"}
    ]},
    {"substance": "tributyl(methyl)ammonium dibutyl phosphate [[N4441][DBP]]", "values": [
      {"measurement": "IL's solubility in base oil", "setting": "OSP-32", "result": ">5", "unit": "% wt. %"},
      {"measurement": "IL's solubility in base oil", "setting": "PAG (50-HB-170)", "result": ">5", "unit": "% wt. %"}
    ]},
    {"substance": "trioctylammonium salicylate [[N888H][C7H5O3]]", "values": [
      {"measurement": "IL's solubility in base oil", "setting": "OSP-32", "result": ">5", "unit": "% wt. %"},
      {"measurement": "IL's solubility in base oil", "setting": "PAG (50-HB-170)", "result": ">5", "unit": "% wt. %"}
    ]}
  ]
}
